Measurements: ChEMBL document CHEMBL1122801, “Nontricyclic antidepressant agents derived from cis- and trans-1-amino-4-aryltetralins” (J Med Chem, 1984)
pIC50: −log10 of the molar value.

By UniProt entry, the sequences of proteins in these tests, tags left out.
UniProt P23977, whole entry: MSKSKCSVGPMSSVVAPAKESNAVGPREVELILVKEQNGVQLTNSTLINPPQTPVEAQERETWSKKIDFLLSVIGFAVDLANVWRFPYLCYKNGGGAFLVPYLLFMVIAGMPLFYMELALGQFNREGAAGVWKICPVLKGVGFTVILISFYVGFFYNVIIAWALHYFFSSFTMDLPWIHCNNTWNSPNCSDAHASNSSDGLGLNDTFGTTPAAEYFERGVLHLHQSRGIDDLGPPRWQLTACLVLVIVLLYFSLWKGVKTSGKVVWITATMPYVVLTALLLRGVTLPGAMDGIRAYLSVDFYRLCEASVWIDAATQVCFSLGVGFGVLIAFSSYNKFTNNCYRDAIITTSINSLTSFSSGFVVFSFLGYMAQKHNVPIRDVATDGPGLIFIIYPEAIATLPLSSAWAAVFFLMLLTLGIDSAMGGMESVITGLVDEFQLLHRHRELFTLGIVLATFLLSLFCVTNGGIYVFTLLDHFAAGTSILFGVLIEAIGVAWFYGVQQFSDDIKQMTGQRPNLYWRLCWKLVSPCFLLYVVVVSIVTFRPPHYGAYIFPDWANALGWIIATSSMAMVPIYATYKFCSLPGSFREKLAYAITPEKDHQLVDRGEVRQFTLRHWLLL

Target: Sodium-dependent dopamine transporter (Rattus norvegicus, UniProt P23977)
Assay type: functional, tissue-based, Striatum

pIC50: 4.70
Compound: CN(C)CCCN1c2ccccc2CCc2ccccc21 [IMIPRAMINE]
